DT40 TDP1 CPT: growth inhibition of DT40 Tdp1-/-;hTDP1 cells with camptothecin (screen for TDP1 inhibitors). chicken DT40 Tdp1-/-;hTDP1 cells + 20 nM CPT, ATP luminescence, 48 h. Potency, µM (highest dose often 46.2 µM), without a hit: at the highest dose activity change, negative = growth inhibition, hits mostly inhibitors. 420,000 compounds, 12% hits. AID 686979; also: potency is read from the fitted curve at half-maximal effect; % is scaled to controls: 0 for no effect and ±100 for the full control effect; nearly all actives have a fitted effect of over 55% in size
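Cell growth measured by CellTiter-Glo luminescence after a minimum 48 h, 37 C compound exposure with 20 nM CPT in Tdp1-knockout DT40 cells stably expressing hTDP1, seeded 400/well; qHTS titration format.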
miR-21 FLuc: miR-21 reporter, rising signal; Potency, µM (titrated, usually from 38.3 µM), without a hit: at the highest dose reporter change, positive = more light; AID 2288; 340,000 tested, under 10 active; HeLa miR-21 FLuc reporter, luciferase, 48 h; active = well fitted rising curve with a large enough effect; inconclusive = small, poorly fitted or top-dose-only effect; inactive = no such curve, though single readings can be large or run the other way;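 note: % of control where 0% means no effect; miR-21 action dims this reporter so a rising signal means less miR-21 action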
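Compounds were titrated across several concentrations (up to approximately 40 uM) and incubated 48 hours with HeLa miR-21-FLuc reporter cells (miR-21 target sequence downstream of FLuc, endogenous miR-21). Readout was firefly luciferase luminescence after lytic detection reagent.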
TDP1 block: blocks human tyrosyl-DNA phosphodiesterase 1. Q9NUW8. recombinant TDP1, AlphaScreen DNA substrate cleavage. Potency, µM (series often up to 130 µM), for the others: top-dose activity change, negative = inhibition, most hits filed as inhibitors. 350,000 compounds, 0.28% hits; also: potency is read from the fitted curve at half-maximal effect; % is scaled to controls: 0 for no effect and ±100 for the full control effect; nearly all actives have a fitted effect of over 40% in size
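Steps: enzyme plus compound, 15 min RT; add biotin/phosphotyrosine-FITC oligonucleotide (15 nM final), react 5 min; add donor/acceptor beads (10 ug/ml final), 10 min; read AlphaScreen. Tdp1 at 1 nM final.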
DT40 TDP1 no CPT: qHTS for Inhibitors of human tyrosyl-DNA phosphodiesterase 1 (TDP1): qHTS in cells in absence of CPT; 420,000 compounds, 15% hits; DT40 Tdp1-/- hTDP1 cells, no CPT, ATP luminescence, 48 h; Potency, µM (highest dose often 46.2 µM), for inactives: top-dose activity change, negative = growth inhibition, hits mostly inhibitors; also: potency is read from the fitted curve at half-maximal effect; % is scaled to controls: 0 for no effect and ±100 for the full control effect; nearly all actives have a fitted effect of over 55% in size
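Camptothecin absent (DMSO only). Human TDP1-complemented DT40 knockout cells, 400 cells/well, 37 °C for minimum 48 hr; ATP measured via CellTiter-Glo, 30 min dark incubation, luminescence.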
uPA surface inh: inhibitors of cell surface uPA generation | 330,000 compounds, 0.31% hits | cell surface uPA generation assay, qHTS | AID 540303 | Potency, µM (doses to about 38.3 µM), for inactives: top-dose activity change, negative = inhibition, usual class: inhibitors; active = well fitted inhibition curve with a large enough effect; inconclusive = small, poorly fitted or top-dose-only effect; inactive = no such curve, though single readings can be large or run the other way; tested in mouse RAW 264.7 cells; also: potency is read from the fitted curve at half-maximal effect; % is scaled to controls: 0 for no effect and ±100 for the full control effect; nearly all actives have a fitted effect of over 55% in size
* = called active by the depositor; ? = inconclusive; . = no result; ! = a repeat was not active. A selection: hits, their analogues and other compounds. The true share with any hit is near 16%. Unless noted, calls follow the shape of the dose curve; as a rule, active = well fitted curve in the direction sought with a large enough effect; inconclusive = small, poorly fitted or top-dose-only effect, or another doubt; inactive = no such curve, though single readings can be large; an effect the other way counts as inactive or inconclusive.

1. CCCC(=O)N(c1ccc(OCC)cc1)S(=O)(=O)c1ccc2c3c(cccc13)C(=O)N2C
2. CC1(NC(=O)Nc2cc([N+](=O)[O-])ccc2O)CCS(=O)(=O)C1 (centres undefined)
3. NC(=O)COC(=O)c1cccc(S(=O)(=O)N2CCCc3ccccc32)c1
4. Cc1ccc(CN(C)C(=O)c2cccc(S(=O)(=O)N3CCc4ccccc43)c2)cc1
5. CCN(Cc1nc2ccccc2c(=O)[nH]1)C(=O)c1cccc(S(=O)(=O)N2CCc3ccccc32)c1
6. COc1ccccc1CN(C)C(=O)c1cccc(S(=O)(=O)N2CCCc3ccccc32)c1
screen / no.	1	2	3	4	5	6
DT40 TDP1 CPT	14.6µM*	10.7%	?	?	?	?
TDP1 block	-4.4%	3.2%	7.5%	-1.0%	1.6%	1.2%
miR-21 FLuc	-1.4%	.	-5.3%	.	.	.
uPA surface inh	11.1%	-9.2%	0.3%	3.9%	6.9%	10.0%
DT40 TDP1 no CPT	13µM*	17.7%	-27.8%	20.6µM*	16.4µM*	11.6µM*

7. COc1ccc(NC(=O)CN(C)C(=O)c2cccc(S(=O)(=O)N3CCCc4ccccc43)c2)cc1
8. O=C(N/N=C/c1cccc2ccccc12)c1cccc(F)c1
9. COc1ccc(C(CNC(=O)c2cccc(S(=O)(=O)N3CCc4ccccc43)c2)N(C)C)cc1 (centres undefined)
10. c1ccc(-c2n[nH]c3c2oc2ccccc23)cc1
11. Cc1c(O)ccc2c1OC(C)(C)CC2
12. Cc1ccc(CNC(=O)CN(c2cccc(C)c2C)S(=O)(=O)c2ccccc2)cc1
screen / no.	7	8	9	10	11	12
DT40 TDP1 CPT	10.3µM*	-0.2%	?	.	5.62µM*	16.4µM*
TDP1 block	1.8%	-1.0%	3.8%	4.1%	.	.
miR-21 FLuc	.	-36.4%	.	.	.	?
uPA surface inh	6.1%	-0.9%	-7.2%	.	.	.
DT40 TDP1 no CPT	-22.1%	-0.3%	10.3µM*	.	3.98µM*	16.4µM*

Arranged by number of heavy atoms (low to high): 3 of the compounds above.
3. NC(=O)COC(=O)c1cccc(S(=O)(=O)N2CCCc3ccccc32)c1
12. Cc1ccc(CNC(=O)CN(c2cccc(C)c2C)S(=O)(=O)c2ccccc2)cc1
6. COc1ccccc1CN(C)C(=O)c1cccc(S(=O)(=O)N2CCCc3ccccc32)c1
screen / no.	3	12	6
DT40 TDP1 CPT	?	16.4µM*	?
TDP1 block	7.5%	.	1.2%
miR-21 FLuc	-5.3%	?	.
uPA surface inh	0.3%	.	10.0%
DT40 TDP1 no CPT	-27.8%	16.4µM*	11.6µM*

New compounds follow
13. CC(C(=O)NCCSCc1cccc(Cl)c1)N(c1ccccc1)S(C)(=O)=O (centres undefined)
14. COc1ccc(N(CC(=O)NCCC2=CCCCC2)S(C)(=O)=O)cc1
15. Cc1cccc(N(CC(=O)NCCC2=CCCCC2)S(C)(=O)=O)c1C
16. Cc1cccc(N(CC(=O)NCCSCc2cccc(Cl)c2)S(=O)(=O)c2ccccc2)c1C
17. O=C(Nc1ccc(OC(F)(F)F)cc1)NC1COc2ccccc2C1 (centres undefined)
18. CCOC(=O)N1CCN(S(=O)(=O)c2cc(Br)cc3c2N(C(C)=O)C(C)C3)CC1 (centres undefined)
screen / no.	13	14	15	16	17	18
DT40 TDP1 CPT	20.6µM*!	-5.8%	16.4µM*	?	-22.6%	-17.6%
TDP1 block	.	0.0%	2.3%	.	2.7%	2.1%
miR-21 FLuc	?	-14.7%	1.6%	20.2%	-5.9%	2.0%
uPA surface inh	0.6%	.	.	.	.	-0.2%
DT40 TDP1 no CPT	13µM*!	-13.7%	?	20.6µM*	-23.2%	-18.4%

19. CCOC(=O)C1CCN(C(=O)Nc2ccc3nc(C)c(C)nc3c2)CC1
20. CCn1nnnc1SCC(=O)NC1CCCC1
21. Cc1ccc(CSCCNC(=O)CN(c2cccc(C)c2C)S(=O)(=O)c2ccccc2)cc1
22. CN(Cc1ccccc1)C(=O)CN(c1ccccc1Cl)S(C)(=O)=O
23. Cc1cccc(N(CC(=O)N(C)Cc2ccccc2)S(=O)(=O)c2ccccc2)c1C
24. Cc1cccc(N(CC(=O)NCCc2ccccc2)S(=O)(=O)c2ccccc2)c1C
screen / no.	19	20	21	22	23	24
DT40 TDP1 CPT	3.6%	-5.5%	?	-3.4%	?	16.4µM*
TDP1 block	-2.6%	-3.8%	.	.	.	.
miR-21 FLuc	-3.9%	-5.2%	22.7%	0.1%	0.4%	11.2%
uPA surface inh	3.8%	-0.5%	.	2.3%	.	.
DT40 TDP1 no CPT	?	-14.8%	?	-23.0%	23.1µM*	18.4µM*

Only miR-21 FLuc, DT40 TDP1 no CPT and uPA surface inh (two entries from above):
| no. | SMILES | miR-21 FLuc | DT40 TDP1 no CPT | uPA surface inh |
| --- | --- | --- | --- | --- |
| 12 | Cc1ccc(CNC(=O)CN(c2cccc(C)c2C)S(=O)(=O)c2ccccc2)cc1 | ? | 16.4µM* | . |
| 13 | CC(C(=O)NCCSCc1cccc(Cl)c1)N(c1ccccc1)S(C)(=O)=O (centres undefined) | ? | 13µM*! | 0.6% |

New compounds follow.
25. CS(=O)(=O)N(CC(=O)NCCSCc1ccccc1)c1cc(C(F)(F)F)ccc1Cl
26. COCCNC(=O)CN(c1cc(C(F)(F)F)ccc1Cl)S(C)(=O)=O
27. OCCC1CN(Cc2nc3ccccc3s2)CCN1C1CCCCC1 (centres undefined)
28. O=C(NCc1ccc(Cl)s1)c1cc(COc2c(F)cccc2F)on1
29. COc1ccc2cc(OC)c(C(=O)N3CCOCC3)cc2c1
screen / no.	25	26	27	28	29
DT40 TDP1 CPT	20.6µM*	-7.1%	-2.0%	-12.2%	9.6%
TDP1 block	.	4.9%	.	1.2%	-1.2%
miR-21 FLuc	?	0.0%	5.8%	-8.7%	-1.1%
uPA surface inh	.	8.4%	11.8%	-1.6%	-1.8%
DT40 TDP1 no CPT	14.6µM*	-0.8%	-15.1%	?	7.2%
